Assay results published in paper PMC6226112 (Clinical and Translational Science, 2018).

Conditions: both, human, in vivo

C=CCN1CC[C@]23c4c5ccc(O)c4O[C@H]2C(=O)CC[C@@]3(O)[C@H]1C5 [NAL, naloxone]
Apparent terminal T½, GM: 1.93 h
